The record followed here is US5830885A, “Antiproliferative vitamin D3 hybrids” (The Johns Hopkins University, priority 1996, dated 1998).

Molecules are shown by their SMILES.

This assay concerns U 937 cancer cells. Put plainly: Inhibition of cell proliferation in U 937 cancer cells (Table 5). It counts as cell-based. To be noted: Homo sapiens, U-937, read-out: Inhibition of cell proliferation IC50.

Regarding `C=C1/C(=C\C=C2/CCC[C@]3(C)[C@@H]([C@H](C)CCCC(C)(C)O)CC[C@@H]23)C[C@@H](O)C[C@@H]1O` [Calcitriol, 1α,25-dihydroxyvitamin D3, reference compound], the IC50 amounted to 20 nM.
